Assay results as given in ChEMBL document CHEMBL1955812, “New chemotypes acting as isozyme-selective carbonic anhydrase inhibitors with low affinity for the offtarget cytosolic isoform II” (Bioorg Med Chem Lett, 2012).

Experiments:
[1] = molecular target: Carbonic anhydrase 12 (Homo sapiens, UniProt O43570); assay: Inhibition of human recombinant carbonic anhydrase 12 preincubated for 15 mins to 72 hrs measured after 6 hrs by stopped flow CO2 hydration method
[2] = molecular target: Carbonic anhydrase 9 (Homo sapiens, UniProt Q16790); assay: Inhibition of human recombinant carbonic anhydrase 9 preincubated for 15 mins to 72 hrs measured after 6 hrs by stopped flow CO2 hydration method
[3] = molecular target: Carbonic anhydrase 5A, mitochondrial (Homo sapiens, UniProt P35218); assay: Inhibition of human recombinant carbonic anhydrase 5A preincubated for 15 mins to 72 hrs measured after 6 hrs by stopped flow CO2 hydration method

Ki [1]: > 200 µM | Ki [2]: > 200 µM | Ki [3]: > 200 µM
SMILES: O=c1ccc2ccccc2o1 [COUMARIN]
